The test relates to MDA-MB-231 cells. The experiment in a line: Wound healing cell migration assay. The settings on record: MDA-MB-231 monolayer scratch; UF010 at 1 μM. The test is classed as cell-based.

Each structure is given as a SMILES string.

Regarding `O=C(CCCCCCC(=O)Nc1ccccc1)NO` [SAHA, vorinostat, reference compound], the “effect on cell migration” value was “did not significantly affect”.
